Laboratory results: US9987276B2

The chains behind the UniProt entries cited, without tags or fusion partners. Where a name states a change or a piece, a line headed by the entry shows the natural chain unless it says otherwise.
UniProt Q06187: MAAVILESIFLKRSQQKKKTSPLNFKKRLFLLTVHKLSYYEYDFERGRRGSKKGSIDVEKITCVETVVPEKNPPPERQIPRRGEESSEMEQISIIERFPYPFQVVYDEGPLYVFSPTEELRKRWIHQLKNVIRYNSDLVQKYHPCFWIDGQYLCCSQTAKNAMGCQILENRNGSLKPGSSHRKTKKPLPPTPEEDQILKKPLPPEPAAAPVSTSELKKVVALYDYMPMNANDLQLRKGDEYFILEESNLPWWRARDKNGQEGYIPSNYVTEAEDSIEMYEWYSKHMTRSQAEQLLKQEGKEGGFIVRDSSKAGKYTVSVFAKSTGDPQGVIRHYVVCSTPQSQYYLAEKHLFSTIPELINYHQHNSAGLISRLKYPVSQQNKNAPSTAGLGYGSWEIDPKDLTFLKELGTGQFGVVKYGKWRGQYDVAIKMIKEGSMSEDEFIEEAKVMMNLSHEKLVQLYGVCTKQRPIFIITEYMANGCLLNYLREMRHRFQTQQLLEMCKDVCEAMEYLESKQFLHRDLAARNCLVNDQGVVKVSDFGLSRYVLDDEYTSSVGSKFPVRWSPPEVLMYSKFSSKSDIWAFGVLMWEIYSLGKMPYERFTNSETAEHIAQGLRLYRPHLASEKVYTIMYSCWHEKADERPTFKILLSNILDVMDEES

Target: BTK (Homo sapiens (Human), UniProt Q06187)
Test: Omnia assay for potency assessment against BTK
Type: biochemical
Details: read-out: BTK Inhibition (IC50)

Q: With `C=CC(=O)Nc1cccc(Nc2nc(Nc3ccc(Oc4ccnc(C(=O)NC)c4)cc3)ncc2F)c1` [Compound I-342, 4-(4-(4-(3-acrylamidophenylamino)-5-fluoropyrimidin-2-ylamino)phenoxy)-N-methylpicolinamide] as the compound, how does the IC50 read?
A: The IC50 was less than 10 nM.
